The values that follow are results of earlier work, collected in patent US11229230B2, “Antioxidant-enriched multivitamin composition and methods of use” (Callion Pharma, LLC, priority 2016, dated 2022).

For this data set the following is noted: individuals suffering from chronic childhood cholestasis.

As to “d-α-tocopherol polyethylene glycol 1000 succinate [TPGS]”, the “vitamin D absorption” value is reported as “increase vitamin D absorption”.
